This passage reports inhibition results from PubChem BioAssay AID435003 (Sanford-Burnham Center for Chemical Genomics, 2010).

The list shows a part of the results, in another mix than the full data. Some salts and complexes are drawn in separate pieces, as the source files them; their charges need not balance. Calls of active or inactive are those of the source. No stated cut-off is given here; in the data, active means inhibition above about 50%; inactive means the rest.

The nature of the assay: inhibitors of induced NF-kB luciferase reporter, primary screen, TCR NF-kB activation inhibitor project, cell-based, luminescence, uHTS (AID 435003). Conditions: Jurkat, PMA/ionomycin-induced NF-kB luciferase reporter, at 4 µM, active compounds read high. (In general: A reporter such as luciferase makes a cellular process visible.)
For orientation: inhibition means the drop in the measured response relative to a control, in per cent. With `COc1ccc(OP(C)(=O)Nc2ccccc2Br)cc1` (stereo not drawn), the inhibition is inactive: -0.34%. To `COc1ccccc1OP(C)(=O)Nc1ccc(C)c(C)c1` (stereo not drawn) belongs inactive: 21.4%; to `Cc1cc(C)cc(OP(C)(=O)Nc2cccc(C(F)(F)F)c2)c1` (stereo not drawn), inactive: 8.91%; to `CP(=O)(Nc1ccc(Cl)cc1Cl)Oc1ccccc1` (stereo not drawn), inactive: -2.11%. Then `CP(=O)(OCCOc1ccccc1)OCCOc1ccccc1`, with inactive: 1.87%. To `Cc1nc2ccc3ccccc3c2o1.O=[N+]([O-])c1cc([N+](=O)[O-])c(O)c([N+](=O)[O-])c1` belongs inactive: -6.99%; to `CN(C)CCOC(=O)C(O)(c1ccccc1)C1CCCC1` (stereo not drawn), inactive: 6.88%; to `COc1ccc(OP(C)(=O)Nc2ccccn2)cc1` (stereo not drawn), inactive: 9.13%. Take `COc1ccccc1OP(C)(=O)Nc1ccc(Br)cc1` (stereo not drawn): the inhibition is inactive: -14.6%.

In the case of `CCc1ccc(OP(C)(=O)O)cc1`, the inhibition was inactive: 4.65%. Then `COc1ccccc1OP(C)(=O)Nc1ccc(C)cc1C` (stereo not drawn), with inactive: -4.19%; and `CP(=O)(Nc1ccccn1)Oc1ccccc1` (stereo not drawn), with inactive: -16.8%; and `Cc1c(NP(C)(=O)Oc2ccc(C(C)C)cc2)c(=O)n(-c2ccccc2)n1C` (stereo not drawn), with inactive: -0.204%.

As for `O=[N+]([O-])c1cc([N+](=O)[O-])c(Nc2ccccn2)c([N+](=O)[O-])c1`, the inhibition is inactive: 9.68%. Then `CCc1ccc(OP(C)(=O)Nc2cccnc2)cc1` (stereo not drawn), with inactive: 1.85%; and `CP(=O)(Oc1ccccc1)N1CCOC1=O` (stereo not drawn), with inactive: -3.2%; and `O=C(OCCCN1CCCC1)C(O)(c1ccccc1)C1CCCCC1` (stereo not drawn), with inactive: 6.4%.

Take `COc1ccccc1OP(C)(=O)Nc1c(C)n(C)n(-c2ccccc2)c1=O` (stereo not drawn): the inhibition is inactive: 0.973%. In the case of `COc1ccc(OP(C)(=O)Nc2ccc(Br)cc2)cc1` (stereo not drawn), the inhibition is inactive: -3.83%. To `CCN(CC)CC(O)COC(=O)C(O)(c1ccccc1)C1CCCCC1` (stereo not drawn) belongs inactive: 4.43%.

Turning to `CN(C)C(=O)c1c([N+](=O)[O-])cc([N+](=O)[O-])cc1[N+](=O)[O-]`, the inhibition was inactive: 9.24%. For the molecule `CP(=O)(Nc1ccc(Cl)cc1)Oc1ccc(F)cc1` (stereo not drawn), the inhibition is inactive: 11.4%. To `COc1ccccc1OP(C)(=O)Nc1ccccc1Br` (stereo not drawn) belongs inactive: 0.00233%; to `CC(C)(C)c1ccc(OP(C)(=O)O)cc1`, inactive: -10.4%; to `CP(=O)(OC12CC3CC(CC(C3)C1)C2)OC12CC3CC(CC(C3)C1)C2`, inactive: -9.52%. As to `CCOC(=O)c1ccc(NP(C)(=O)Oc2ccc(Cl)cc2)cc1` (stereo not drawn), the inhibition was inactive: 7.8%.

With `Nc1ccc2c(ccc3cccnc32)n1.O=[N+]([O-])c1cc([N+](=O)[O-])c(O)c([N+](=O)[O-])c1`, the inhibition is inactive: -2.49%.

With `COc1ccc(NP(C)(=O)Oc2ccccc2OC)cc1` (stereo not drawn), the inhibition was inactive: 12.7%. Then `CN(C)CCOC(=O)C(O)(c1ccccc1)C1CCCCC1` (stereo not drawn), with inactive: -4.72%; and `COc1ccc(OP(C)(=O)Nc2cccc(Br)c2)cc1` (stereo not drawn), with inactive: -10.3%; and `O=[N+]([O-])c1cc([N+](=O)[O-])c(NCC2CCS(=O)(=O)C2)c([N+](=O)[O-])c1` (stereo not drawn), with inactive: -1.58%. To `CCOP(C)(=S)SCC(=O)NC(C)(CC)C(=O)O` (stereo not drawn) belongs inactive: -2.93%; to `CP(=O)(Nc1ccc(SC(F)(F)F)cc1)Oc1ccc(F)cc1` (stereo not drawn), inactive: -2.51%; to `Cc1ccccc1NP(C)(=O)Nc1ccccc1C`, inactive: -3.91%.

`CP(=O)(Nc1ccc2c(c1)OCCO2)Oc1ccccc1` (stereo not drawn): the inhibition is inactive: 8.64%.

As for `CC(C)c1ccc(OP(C)(=O)Nc2ccc(SC(F)(F)F)cc2)cc1` (stereo not drawn), the inhibition was inactive: 0.861%. Regarding `CP(=O)(Nc1ccccc1F)Oc1ccccc1` (stereo not drawn), the inhibition was inactive: -5.45%. Then `COc1ccc2c(c1O)-c1c(O)c(OC)cc3c1[C@H](C2)[N+](C)(C)CC3.O=[N+]([O-])c1cc([N+](=O)[O-])c([O-])c([N+](=O)[O-])c1[O-]`, with inactive: 0.14%. To `O=C(OCCN1CCN(CCOCc2ccccc2)CC1)C(O)(c1ccccc1)c1ccccc1` belongs inactive: 3.57%; to `O=C(OC1CN2CCC1CC2)c1ccc([N+](=O)[O-])cc1` (stereo not drawn), inactive: -15.6%. To `COc1ccc(OP(C)(=O)Nc2ccc(SC(F)(F)F)cc2)cc1` (stereo not drawn) belongs inactive: 8.36%. Consider `CCOC(=O)c1ccc(NP(C)(=O)Oc2ccc(F)cc2)cc1` (stereo not drawn), for which the inhibition was inactive: 8.9%. Then `CCCCCOc1ccc(NP(C)(=O)Oc2ccc(Cl)cc2Cl)cc1` (stereo not drawn), with inactive: -16.3%; and `O=[N+]([O-])c1cc([N+](=O)[O-])c(OC2CCCCC2O)c([N+](=O)[O-])c1` (stereo not drawn), with inactive: 1.93%; and `CP(=O)(Nc1ccccc1)Oc1ccc(F)cc1` (stereo not drawn), with inactive: -7.18%.

Take `CCN(CC)CCCOC(=O)C(O)(c1ccccc1)C1CCCCC1` (stereo not drawn): the inhibition is inactive: -20.2%. Then `O=C(O)c1cccc(Nc2c([N+](=O)[O-])cc([N+](=O)[O-])cc2[N+](=O)[O-])c1`, with inactive: 2.04%; and `CC1=NCCc2c1[nH]c1ccccc21.O=[N+]([O-])c1cc([N+](=O)[O-])c(O)c([N+](=O)[O-])c1`, with inactive: 7.58%; and `Cc1cc(C)cc(OP(C)(=O)Nc2ccc(C)cc2C)c1` (stereo not drawn), with inactive: -2.04%. As to `CCOC(=O)c1ccc(NP(C)(=O)Oc2cc(C)cc(C)c2)cc1` (stereo not drawn), the inhibition is inactive: -8.01%. To `COc1ccccc1OP(C)(=O)Nc1cccc(Br)c1` (stereo not drawn) belongs inactive: -4.44%; to `Cc1cc(C)cc(OP(C)(=O)Nc2ccccn2)c1` (stereo not drawn), inactive: 8.9%. To `CP(=O)(Nc1cccc(Br)c1)Oc1ccccc1` (stereo not drawn) belongs inactive: 9.9%.

As to `Cc1ccc(C)c(NP(C)(=O)Oc2ccccc2)c1` (stereo not drawn), the inhibition was inactive: 9.69%. Then `O=[N+]([O-])c1cc([N+](=O)[O-])c(-n2nnc3ccccc32)c([N+](=O)[O-])c1`, with inactive: 0.104%.

In the case of `Cc1nc2ccc3ccccc3c2s1.O=[N+]([O-])c1cc([N+](=O)[O-])c(O)c([N+](=O)[O-])c1`, the inhibition was inactive: -4.24%. To `O=[N+]([O-])c1cc([N+](=O)[O-])c(-c2cnn(-c3ccccc3)c2)c([N+](=O)[O-])c1` belongs inactive: -4.77%; to `CCOC(=O)C(CC)C1=NC(C)(C)Cc2ccccc21.O=[N+]([O-])c1cc([N+](=O)[O-])c(O)c([N+](=O)[O-])c1` (stereo not drawn), inactive: -10%.
